The results in this text go back to ChEMBL document CHEMBL5149989, “Interplay among Conformation, Intramolecular Hydrogen Bonds, and Chameleonicity in the Membrane Permeability and Cyclophilin A Binding of Macrocyclic Peptide Cyclosporin O Derivatives” (J Med Chem, 2021).

The nature of this data set: Efflux ratio of permeability from basolateral to apical side over apical to basolateral side in human Caco2 cells measured at 0.5 to 2 hrs by LC-MS analysis. The data set is classed as ADME, cell-based. The following applies: caco-2, time 0.5-2 hrs. On the technique in general: Caco-2 monolayers are a common model of the intestinal barrier.

For `CC(C)NCC(O)COc1ccc(CC(N)=O)cc1` (stereo unspecified) [ATENOLOL], the Ratio is listed as 10.
